Test results taken from PubChem BioAssay AID1663 (Broad Institute, 2009).
This is a selection; strong and weak results do not stand in their true shares. Calls of active or inactive are those of the source.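 How the source made its calls: active means mean replicate score, as percent of positive control, at or above 50; inconclusive means mean below 50 but at least one replicate at or above 50; inactive means mean and every replicate below 50.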

Experiment: blockers of SFLLRN-triggered platelet ATP release – cell-based, MLPCN, human platelets, primary screen (AID 1663)
Settings: human platelet-rich plasma, SFLLRN dense granule ATP release, luminescence; stronger effect = higher value;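 compounds screened at 7.5 µM in platelet-rich plasma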

Compound | inhibition
CN(C)C1(CNC(=O)c2ccc(S(C)(=O)=O)cc2)CCCCC1 | inactive: 0.221%
O=P1(Nc2ncccn2)COc2ccccc2OC1 | inactive: 4.85%
O=P1(Nc2ccc(Br)cn2)COc2ccccc2OC1 | inactive: -16.1%
Cc1ccc(OCC(=O)OC2CN3CCC2CC3)cc1 (stereo not given) | inactive: 0.265%
O=[As](O)(c1cccs1)c1cccs1 | inactive: -3.86%
Nc1cccc([As](=O)(O)c2ccccc2)c1 | inactive: -2.49%
CN(CCCl)Cc1cc(Cl)c(NC2=NCCN2)c(Cl)c1 | inactive: -3.79%
CCOP(=O)(Nc1ccc(C)cn1)OCC | inactive: 3.32%
CCOP(=O)(NC(=NC(C)c1ccccc1)NC(C)c1ccccc1)OCC (stereo not given) | inactive: 6.32%
O=P1(Nc2ccccn2)COc2ccccc2OC1 | inactive: -1.4%
CCC1=CC2Cc3nc4ccc(Cl)cc4c(N)c3C(C1)C2 (stereo not given) | inactive: 2.48%
CC(C)(C)C(=O)NC(Sc1ncccn1)C(Cl)(Cl)Cl (stereo not given) | inactive: -1.8%
Clc1n[nH]nc1-c1nn[nH][15n]1 | inactive: -7.63%
COc1ccccc1CNC(=O)COC(=O)C(O)(c1ccccc1)c1ccccc1 | inactive: -4.29%
CC1(CBr)Cn2c(nc3ccccc3c2=O)S1 (stereo not given) | inactive: -1.09%
O=[As](O)(c1ccccc1Br)c1ccccc1Br | inactive: 6.53%
CC(C)/C=N\N=C(\N)N[N+](=O)[O-] | inactive: -8.07%
CN(C(=O)Cc1ccc(Cl)c(Cl)c1)[C@@H]1CCCC[C@H]1N1CCCC1 | inactive: 0.87%
COP1(=S)c2c(C)nn(CCC#N)c2N=C(c2ccc(F)cc2)N1C (stereo not given) | inactive: 3.82%
O=C(Nc1ccncc1[N+](=O)[O-])c1ccc([N+](=O)[O-])cc1[N+](=O)[O-] | inactive: 5.53%
CCOC(=O)c1ccc(NC(=O)C(C)(CCl)SC)cc1 (stereo not given) | inactive: 1.72%
O=C(OC1CN2CCC1CC2)c1cccc([N+](=O)[O-])c1 (stereo not given) | inactive: 1.33%
CCC(C)N(CC(C)C)C(=S)SC(NC(C)=O)C(Cl)(Cl)Cl (stereo not given) | inactive: 0.93%

Compound | inhibition
CCOC(=O)Nc1ccc([As](=O)(O)O)c(O)c1 | inactive: 6.89%
Cc1cc(SC(NC(=O)c2ccccc2)C(Cl)(Cl)Cl)nc(C(C)C)n1 (stereo not given) | inactive: -0.94%
CCCCOc1ccc(C(=O)NCC2(N3CCCCC3)CCCCC2)cc1OC | inactive: 6.13%
CCOC(=O)Nc1cccc([As](=O)(O)O)c1 | inactive: -0.736%
O=[N+]([O-])c1ccc(Nc2ccc(Oc3ccc([N+](=O)[O-])cc3[N+](=O)[O-])cc2)c([N+](=O)[O-])c1 | inactive: 0.344%
O=P(Nc1ccccn1)(c1cccc2ccccc12)c1cccc2ccccc12 | inactive: -1.59%
Cc1cc(SC(NC=O)C(Cl)(Cl)Cl)ncn1 (stereo not given) | inactive: 2.73%
C[As](=O)(O)c1cccc(C(=O)O)c1 | inactive: 6.28%
O=[As](O)(c1ccc(O)cc1)c1ccccc1O | inactive: 5.08%
Cc1ccc2nc3c(c(C)c2c1)CC(C(Cl)Cl)S3 (stereo not given) | inactive: -7.2%
Cc1ccc(OP(=O)(Nc2ccc([N+](=O)[O-])cn2)Oc2ccc(C)cc2)cc1 | inactive: -0.747%
CC(C)c1ccc(OP(=O)(Nc2ccccn2)Oc2ccccc2F)cc1 (stereo not given) | inactive: 1.71%
ClCCSc1nnc(-c2cccnc2)o1 | inactive: 1.43%
O=[N+]([O-])c1cc([N+](=O)[O-])c(-c2ccn[nH]2)s1 | inactive: 3.38%
CCN(CC)C(=S)SC(NC=O)C(Cl)(Cl)Cl (stereo not given) | inactive: 15.2%
CC(C)NC(=O)NP(=O)(Oc1ccccc1)Oc1ccccc1 | inactive: 14%
Cc1cc(=O)[nH]c(N[N+](=O)[O-])n1 | inactive: 1.62%
O=C(OC1CN2CCC1CC2)C12CC3CC(CC(C3)C1)C2 (stereo not given) | inactive: -1.83%
Cc1c2c(nc3ccccc13)SC(C(Cl)Cl)C2 (stereo not given) | inactive: -1.02%
COc1cc(I)ccc1[As](=O)(O)O | inactive: 3%
COc1ccc2nc(NP(=O)(c3ccccc3)c3ccccc3)sc2c1 | inactive: 0.329%
COc1ccc(N/C(=N/P(=O)(N2CCOCC2)N2CCOCC2)N2CCOCC2)cc1 | inactive: -1.61%
